In patent US4252898A:

Test system: NRRL 11459
Test: Inhibitor sensitivity of the producing strain (inhibitor in ISP #2 agar)
Type: cell-based, Streptomyces flocculus
Details: NRRL11459, read-out: Inhibitor sensitivity, MIC
Description: The cell wall sugars are determined using a modification of the procedure of M. Lechevalier, "Chemical Methods as Criteria for the Separation of Actinomycetes Into Genera", workshop sponsored by the subcommittee on Actionomycetes of the American Society of Microbology, Dr. Thoman G. Pridham, Convenor, held at the Institute of Microbology, Rutgurs University, New Brunswick, N.J., 1971. The isomer of diaminopimelic acid is determined using the method of B. Becker Appl. Microbiol., 11 421 ([…]). Amino acid analysis is determined with washed cell wall fragments. Melanoid pigments are determined using ISP #6 (peptone-yeast extract iron agar) and ISP #7 (tyrosine agar). Inhibitors are tested by incorporating varing concentrations of inhibitors into ISP #2 agar plates and streaking the culture on the surface. Starch hydrolysis is determined by testing for the presence of starch with iodine on ISP #4 agar plates. Temperature range, NaCl tolerance, pH range, and antibiotic sensitivity are done using ISP #2 agar medium. The range of temperatures are: 25°, 28°, 30°, 34°, 37°, 40°, 45°, 50°, 55° C. NaCl tolerance is measured by adding NaCl to the agar to equal: 0, 1, 2, 3, 4, 5, 6, 8, 10, 12% and incubating at 30° C. for 7 days. Antibiotic sensitivity is determined using sensitivity discs padded onto seeded agar plates of ISP #2 medium and incubating at 30° C. for 14 days.

Question: For `CCN(CC)c1ccc2cc3ccc(=[N+](CC)CC)cc-3oc2c1` [Pyronin B], which MIC is on record?
Answer: 250 µg/mL
